Test results as given in patent US20120245137A1 (Zalicus Pharmaceuticals Ltd., priority 2009, published 2012).

Amino acid sequences for entries named in this document (tags omitted).
UniProt O95180, whole entry: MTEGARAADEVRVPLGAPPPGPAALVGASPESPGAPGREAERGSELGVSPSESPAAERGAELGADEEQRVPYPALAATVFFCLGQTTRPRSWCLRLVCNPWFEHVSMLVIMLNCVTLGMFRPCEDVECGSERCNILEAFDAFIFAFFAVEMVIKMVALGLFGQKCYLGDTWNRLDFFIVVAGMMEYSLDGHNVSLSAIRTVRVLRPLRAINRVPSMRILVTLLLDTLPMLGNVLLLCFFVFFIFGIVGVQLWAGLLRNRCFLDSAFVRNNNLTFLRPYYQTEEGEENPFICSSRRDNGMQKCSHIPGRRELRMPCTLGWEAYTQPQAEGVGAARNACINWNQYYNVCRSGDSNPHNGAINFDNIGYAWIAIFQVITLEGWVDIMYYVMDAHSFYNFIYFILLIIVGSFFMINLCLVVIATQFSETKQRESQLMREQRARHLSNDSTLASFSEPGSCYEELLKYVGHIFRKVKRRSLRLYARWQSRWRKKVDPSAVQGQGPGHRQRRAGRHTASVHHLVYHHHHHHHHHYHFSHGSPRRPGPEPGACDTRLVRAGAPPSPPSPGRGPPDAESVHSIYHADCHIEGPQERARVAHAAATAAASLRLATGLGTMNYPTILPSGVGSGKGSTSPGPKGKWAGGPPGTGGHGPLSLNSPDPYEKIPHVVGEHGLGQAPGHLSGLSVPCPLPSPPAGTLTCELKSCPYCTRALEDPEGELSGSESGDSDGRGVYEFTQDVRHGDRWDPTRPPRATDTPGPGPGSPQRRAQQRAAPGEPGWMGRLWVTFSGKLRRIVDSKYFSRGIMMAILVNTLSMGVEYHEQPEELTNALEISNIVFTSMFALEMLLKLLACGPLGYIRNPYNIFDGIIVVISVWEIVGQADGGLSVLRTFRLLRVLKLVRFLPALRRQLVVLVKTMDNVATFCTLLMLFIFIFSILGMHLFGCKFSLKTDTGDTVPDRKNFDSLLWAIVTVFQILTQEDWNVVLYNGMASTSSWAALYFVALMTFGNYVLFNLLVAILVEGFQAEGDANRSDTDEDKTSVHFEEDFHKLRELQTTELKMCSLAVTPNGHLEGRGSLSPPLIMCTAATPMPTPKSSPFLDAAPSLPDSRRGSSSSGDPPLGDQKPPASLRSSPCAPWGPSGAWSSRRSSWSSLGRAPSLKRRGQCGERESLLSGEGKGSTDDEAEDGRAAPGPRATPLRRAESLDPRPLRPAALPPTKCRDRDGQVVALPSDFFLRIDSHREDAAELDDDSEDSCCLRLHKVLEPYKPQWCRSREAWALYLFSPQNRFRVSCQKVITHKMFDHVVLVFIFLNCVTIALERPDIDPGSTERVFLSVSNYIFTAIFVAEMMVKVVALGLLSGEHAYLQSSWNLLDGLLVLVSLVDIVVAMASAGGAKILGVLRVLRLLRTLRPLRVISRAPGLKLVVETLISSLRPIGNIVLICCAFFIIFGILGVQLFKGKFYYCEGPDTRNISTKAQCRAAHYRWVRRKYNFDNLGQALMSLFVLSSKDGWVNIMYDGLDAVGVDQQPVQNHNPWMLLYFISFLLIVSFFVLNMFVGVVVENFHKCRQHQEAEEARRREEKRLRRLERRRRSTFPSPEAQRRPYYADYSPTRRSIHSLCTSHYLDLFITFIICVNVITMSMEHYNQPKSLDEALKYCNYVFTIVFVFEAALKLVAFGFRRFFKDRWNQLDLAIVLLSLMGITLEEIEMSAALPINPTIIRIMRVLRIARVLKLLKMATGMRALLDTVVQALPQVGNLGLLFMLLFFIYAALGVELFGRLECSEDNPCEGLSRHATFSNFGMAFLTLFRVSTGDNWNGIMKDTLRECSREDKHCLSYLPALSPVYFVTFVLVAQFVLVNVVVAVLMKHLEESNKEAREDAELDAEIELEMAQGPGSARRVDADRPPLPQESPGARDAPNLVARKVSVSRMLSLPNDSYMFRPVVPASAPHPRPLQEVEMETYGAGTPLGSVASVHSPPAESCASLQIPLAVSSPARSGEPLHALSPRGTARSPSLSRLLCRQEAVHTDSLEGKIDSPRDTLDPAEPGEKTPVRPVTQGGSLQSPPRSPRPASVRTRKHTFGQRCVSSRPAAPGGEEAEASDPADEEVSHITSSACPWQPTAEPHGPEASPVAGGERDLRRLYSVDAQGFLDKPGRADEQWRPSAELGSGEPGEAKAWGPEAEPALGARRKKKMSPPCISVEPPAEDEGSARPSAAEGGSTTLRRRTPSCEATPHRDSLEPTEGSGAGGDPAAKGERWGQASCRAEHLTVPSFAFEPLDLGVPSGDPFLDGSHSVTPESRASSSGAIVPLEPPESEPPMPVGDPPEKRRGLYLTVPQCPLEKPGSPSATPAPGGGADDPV
UniProt O43497, whole entry: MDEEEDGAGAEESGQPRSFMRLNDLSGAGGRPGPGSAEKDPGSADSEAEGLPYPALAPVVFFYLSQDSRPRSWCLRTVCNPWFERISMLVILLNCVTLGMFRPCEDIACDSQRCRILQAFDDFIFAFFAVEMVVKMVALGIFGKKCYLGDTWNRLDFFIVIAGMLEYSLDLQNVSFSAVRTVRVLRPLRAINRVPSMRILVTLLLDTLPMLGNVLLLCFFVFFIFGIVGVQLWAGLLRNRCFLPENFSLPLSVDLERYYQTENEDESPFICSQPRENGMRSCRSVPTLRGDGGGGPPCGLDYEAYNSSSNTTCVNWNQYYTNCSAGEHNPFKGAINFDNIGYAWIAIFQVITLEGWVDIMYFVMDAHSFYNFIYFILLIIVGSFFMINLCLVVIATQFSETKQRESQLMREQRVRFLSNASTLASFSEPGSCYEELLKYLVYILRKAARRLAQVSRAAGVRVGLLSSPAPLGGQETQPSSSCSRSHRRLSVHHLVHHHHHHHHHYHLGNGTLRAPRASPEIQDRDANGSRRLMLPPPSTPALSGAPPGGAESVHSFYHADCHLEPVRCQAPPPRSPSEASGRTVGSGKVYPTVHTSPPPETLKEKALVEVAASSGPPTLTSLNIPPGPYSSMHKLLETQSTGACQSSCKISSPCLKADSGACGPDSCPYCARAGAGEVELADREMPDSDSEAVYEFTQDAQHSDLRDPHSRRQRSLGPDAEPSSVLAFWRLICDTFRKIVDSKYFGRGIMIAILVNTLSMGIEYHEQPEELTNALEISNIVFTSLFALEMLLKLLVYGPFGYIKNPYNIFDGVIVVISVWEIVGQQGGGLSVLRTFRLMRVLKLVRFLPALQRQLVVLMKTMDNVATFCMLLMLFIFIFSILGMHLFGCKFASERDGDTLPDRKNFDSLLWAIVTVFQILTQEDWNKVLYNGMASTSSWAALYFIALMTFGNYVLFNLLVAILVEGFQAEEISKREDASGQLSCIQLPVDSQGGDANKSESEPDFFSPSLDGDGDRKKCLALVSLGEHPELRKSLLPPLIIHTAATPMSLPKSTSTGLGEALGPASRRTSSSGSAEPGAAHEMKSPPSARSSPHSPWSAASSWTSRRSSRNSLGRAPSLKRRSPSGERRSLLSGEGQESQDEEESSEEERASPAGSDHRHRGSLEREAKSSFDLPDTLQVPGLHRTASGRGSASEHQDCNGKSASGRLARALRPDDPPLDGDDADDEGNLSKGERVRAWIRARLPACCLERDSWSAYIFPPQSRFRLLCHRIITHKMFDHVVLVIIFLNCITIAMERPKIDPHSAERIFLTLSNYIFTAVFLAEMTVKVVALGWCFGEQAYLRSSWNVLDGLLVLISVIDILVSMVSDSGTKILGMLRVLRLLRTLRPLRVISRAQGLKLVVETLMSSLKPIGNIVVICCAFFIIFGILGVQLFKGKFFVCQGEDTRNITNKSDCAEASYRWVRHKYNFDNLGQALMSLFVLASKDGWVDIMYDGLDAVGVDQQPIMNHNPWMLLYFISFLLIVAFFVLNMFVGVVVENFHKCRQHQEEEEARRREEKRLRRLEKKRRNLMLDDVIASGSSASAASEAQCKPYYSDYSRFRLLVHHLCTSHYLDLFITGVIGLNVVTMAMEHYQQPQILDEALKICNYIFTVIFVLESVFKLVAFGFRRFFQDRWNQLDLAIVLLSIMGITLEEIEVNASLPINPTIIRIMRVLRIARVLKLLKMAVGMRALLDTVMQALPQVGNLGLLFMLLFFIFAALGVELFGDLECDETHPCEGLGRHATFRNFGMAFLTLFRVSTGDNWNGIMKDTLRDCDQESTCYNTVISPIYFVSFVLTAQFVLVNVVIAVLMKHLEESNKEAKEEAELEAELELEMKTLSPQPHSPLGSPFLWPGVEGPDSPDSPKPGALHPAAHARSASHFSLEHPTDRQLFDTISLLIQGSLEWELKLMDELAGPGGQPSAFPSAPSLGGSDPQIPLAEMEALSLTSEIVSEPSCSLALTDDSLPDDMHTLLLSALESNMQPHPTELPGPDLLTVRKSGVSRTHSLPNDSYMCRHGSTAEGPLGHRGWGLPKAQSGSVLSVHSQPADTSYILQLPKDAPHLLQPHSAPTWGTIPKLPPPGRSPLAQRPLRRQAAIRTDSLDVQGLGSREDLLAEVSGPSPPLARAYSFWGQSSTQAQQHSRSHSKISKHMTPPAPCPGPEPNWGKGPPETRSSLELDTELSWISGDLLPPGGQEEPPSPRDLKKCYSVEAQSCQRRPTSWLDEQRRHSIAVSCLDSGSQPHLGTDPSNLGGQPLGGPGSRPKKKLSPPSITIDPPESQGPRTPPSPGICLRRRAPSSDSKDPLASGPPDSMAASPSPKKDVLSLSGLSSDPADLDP

Legend:
[1] = molecular target: human α1H T-type channels (Homo sapiens, UniProt O95180); experiment: T-type calcium channel block, whole cell patch clamp, α1H; format: cell-based; conditions: read-out: α1H; HEK cells stably expressing human α1H; mainly non-inactivated protocol; values above 10,000 nM represented as 10000
[2] = molecular target: human α1G T-type channels (Homo sapiens, UniProt O43497); experiment: T-type calcium channel block, whole cell patch clamp, α1G; format: cell-based; conditions: read-out: α1G; HEK cells stably expressing human α1G; mainly non-inactivated protocol; values above 10,000 nM represented as 10000

| SMILES | IC50 [1] [nM] | IC50 [2] [nM] |
| --- | --- | --- |
| CC(C)(CNC(=O)c1ccc(Oc2ccc(Cl)cc2)cc1)S(=O)(=O)c1cccc(C(F)(F)F)c1 | 1760 | 540 |
| CC(C)(C(=O)Nc1ccc(Oc2ccc(F)c(C(F)(F)F)c2)nc1)S(=O)(=O)c1cccc(C(F)(F)F)c1 | 1360 | 370 |
| Cc1c(OC(C)C)ncnc1C(=O)NCCC(C)(C)S(=O)(=O)c1cccc(C(F)(F)F)c1 | 3080 | 620 |
| CC(C)(CNS(=O)(=O)c1ccc(N2CCCC2=O)cc1)S(=O)(=O)c1cccc(C(F)(F)F)c1 | > 10000 | 900 |
